Test system: Mut MEFs
Assay: JC1 staining of intact and damaged mitochondria (mitochondrial membrane potential)
Assay type: cell-based, mouse
Conditions: Mutant MEFs, 1 μM, 24 hours (FIG. 12)
Description: Mut MEFs were treated or not for 6 hours with the indicated concentrations of p8G5 (blue), pre084 (purple), or NE-100 (yellow), washed and stained with Hoechst and JC1 for 30 minutes followed by image acquisition using In-Cell-Analyzer-2000. Shown is the % of red/green JC1 integrated intensity per cell relative to that in untreated WT cells of 2-4 independent experiments.
Following, the cells were washed, stained with Hoechst and JC-1 fluorescent dyes for 30 minutes, and subjected to image acquisition using In-Cell-Analyzer-2000. Shown is cellular content of damaged mitochondria (JC1 green channel, red bars), intact mitochondria (JC1 red channel, green bars) and damaged to intact mitochondria ratio (blue bars). Values of control (vehicle treated) cells was set to 100%.
Mut MEFs were treated with the indicated compounds at 10 μM for 24 hours followed by staining with fluorogenic dyes and image-based single-cell analysis. […]
Mut MEFs were incubated or not for 24 hours with 10 μM of the indicated compounds, washed and stained with Hoechst and JC1 followed by image-based single-cell analysis. […] Mut MEFs were incubated or not with the indicated concentrations of the indicated compounds for 2 hours followed by addition of 50 ng/ml Tunicamycin (Tun) for additional 22 hours, stained with Crystal Violet followed by measurement of absorbance at 570 nm. […]

CC1=C2C[C@H]3[C@@H](CC=C4C[C@@H](O)CC[C@@]43C)[C@@H]2CC[C@]12O[C@@H]1C[C@H](C)CN[C@H]1[C@H]2C [Cyclopamine, reference compound]
ratio of damaged to intact mitochondria: decreased ratio of damaged to intact mitochondria

Source: patent US20200061076A1, “METHODS OF TREATING LEUKODYSTROPHIES” (Ramot at Tel-Aviv University Ltd., priority 2017, published 2020)
